For this test, the target named is human CAIX (Homo sapiens, UniProt Q16790). It is filed as binding. As to conditions: Table 1; peptide ligands on TBMB scaffold; fluorescent ligand A-(SEQ ID NO:1)-A-Sar6-K(FI).

The values below come from patent US20220133732A1 (priority 2019, published 2022).

Turning to “Ac-A-(SEQ ID NO: 3)-A-Sar10-D-K [61-01-02-N004]”, the Ki turned out to be 13.4 nM.

One may read the Ki as the dissociation constant of the complex between target and ligand, obtained from inhibition or displacement. Low values mean tighter binding, high ones weaker binding.
